Screening data as filed in PubChem BioAssay.
Rows were chosen to be rich in hits. Some 1.3% of all compounds tested hit in one or more screens of this group.
AF4-AF9 inh: blocks AF4 peptide binding to human AF9; AlphaScreen, biotin-AF4 peptide binding to FLAG-AF9; 0.47% of 350,000 active; inhibition, % at 10 µM; P42568;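 active = every replicate reaching a set inhibition limit, whatever the replicate mean, cut at about 25% in these data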
ARNT TACC3 PPI: ARNT/TACC3 interaction disruption. AlphaScreen His-ARNT PAS-B/GST-TACC3 binding, luminescence; TACC3 fragment carries E629A point mutation. inhibition, % at 9.99 µM. 0.66% of 390,000 active. AID 623870;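 active = mean inhibition of replicates at least 50% and at least half of replicates each reaching 50%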
UUG fidelity: modulators of yeast start codon fidelity, primary screen, whole organism, S. cerevisiae, single point, plate reader. S. cerevisiae UUG-firefly luciferase reporter, luminescence/redox ratio. activity score, % at 18.7 µM. 350,000 tested, 0.13% active;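 active = replicate mean at a twofold rise or more, about +100% in these data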;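 also: firefly luciferase made from a UUG start codon reports start codon fidelity; reporter light over untreated wells divided by growth signal over untreated wells; some hits fall short of that in this replicate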
E-sel inducer: E-selectin induction on HUVECs; HUVEC E-selectin immunofluorescence imaging; normalized: neutral wells 0, TNF-alpha wells 100; AID 686992; 0.37% of 260,000 active; activation, % at 7.58 µM;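 active = mean E-selectin-positive cell signal at least 10% of the positive control, reached in at least 60% of replicates, without over 20% cell loss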
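Assay system: HUVEC, human umbilical vein endothelial cells / Amount: 3,000 HUVEC/well / Controls: TNF-alpha positive control, DMSO neutral control / Compound dosing: single concentration / Medium: EGM-2 over gelatin coat / Evaluation: percent E-selectin-positive cells / Signal: immunofluorescence imaging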
S100A4 MyoIIA: S100A4-myosin IIA interaction inhibition; S100A4/TAMRA-MyoIIA peptide fluorescence polarization; inhibition, % at 10.7 µM; P26447; AID 652163; 0.14% of 360,000 active;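 active = mean inhibition of at least 70% across replicates, with every replicate also reaching that level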
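Material: S100A4 monomer protein / Buffer or medium: 50 mM HEPES pH 7.2, 10 mM CaCl2, 100 mM KCl / Times: 5 min incubation before reading / Benchmarks: neutral control DMSO, positive control TFP / Reagent: labelled myosin peptide probe, 5 nM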
ERAP1 inh: ERAP1 (human) enzyme inhibition. recombinant ERAP1, Leu-AMC fluorescence, 60 min. inhibition, % at 10.7 µM. 0.15% of 340,000 active. AID 652197;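 active = mean replicate inhibition of at least 30%, or all replicates individually reaching that 30% level; inactive = mean below 30% and not every replicate reaching it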
Numbers stand for hits.

What do the screens show for `CO[C@H]1CN(C)C(=O)c2ccc(NS(=O)(=O)c3ccccc3)cc2OC[C@H](C)N(Cc2cccnc2)C[C@@H]1C`?
AF4-AF9 inh: inactive; ARNT TACC3 PPI: inactive; E-sel inducer: inactive; S100A4 MyoIIA: 79.4; ERAP1 inh: inactive

How did CCCC(=O)Nc1ccc2c(c1)OC[C@@H](C)N(Cc1ccncc1)C[C@H](C)[C@H](OC)CN(C)C2=O do in these assays?
AF4-AF9 inh: inactive; ARNT TACC3 PPI: inactive; UUG fidelity: inactive; E-sel inducer: inactive; S100A4 MyoIIA: 121.0; ERAP1 inh: inactive

How did CO[C@@H]1CN(C)C(=O)c2ccc(NC(=O)c3ccc4c(c3)OCO4)cc2OC[C@@H](C)N(Cc2ccc3c(c2)OCO3)C[C@H]1C do in these assays?
AF4-AF9 inh: inactive; ARNT TACC3 PPI: inactive; E-sel inducer: inactive; S100A4 MyoIIA: 79.6; ERAP1 inh: inactive

What do the screens show for `CC(C)CC#Cc1ccc2c(c1)O[C@@H](CN(C)S(=O)(=O)c1cccc(F)c1)[C@H](C)CN([C@@H](C)CO)S2(=O)=O`?
AF4-AF9 inh: inactive; ARNT TACC3 PPI: inactive; UUG fidelity: inactive; E-sel inducer: inactive; S100A4 MyoIIA: inactive; ERAP1 inh: inactive

What do the screens show for `O=C(C[C@H]1CC[C@H](NC(=O)Nc2cccc(F)c2)[C@@H](CO)O1)NCC1CCCCC1`?
AF4-AF9 inh: inactive; ARNT TACC3 PPI: inactive; UUG fidelity: inactive; E-sel inducer: inactive; S100A4 MyoIIA: inactive; ERAP1 inh: inactive

Results for CO[C@H]1CN(C)C(=O)c2ccc(NC(=O)C3CCCCC3)cc2OC[C@@H](C)N(Cc2nccs2)C[C@H]1C ?
AF4-AF9 inh: inactive; ARNT TACC3 PPI: inactive; UUG fidelity: inactive; E-sel inducer: inactive; S100A4 MyoIIA: inactive; ERAP1 inh: inactive

Results for CCCC(=O)Nc1ccc2c(c1)OC[C@@H](C)N(CCC(F)(F)F)C[C@H](C)[C@H](OC)CN(C)C2=O ?
AF4-AF9 inh: inactive; ARNT TACC3 PPI: inactive; UUG fidelity: inactive; E-sel inducer: inactive; S100A4 MyoIIA: inactive; ERAP1 inh: inactive

Results for CCCC(=O)Nc1ccc2c(c1)OC[C@H](C)N(CCC(F)(F)F)C[C@H](C)[C@@H](OC)CN(C)C2=O ?
AF4-AF9 inh: inactive; E-sel inducer: inactive; S100A4 MyoIIA: 131.2; ERAP1 inh: inactive

How did CO[C@H]1CN(C)C(=O)c2ccc(NC(=O)C3CCCCC3)cc2OC[C@@H](C)N(Cc2nccs2)C[C@@H]1C do in these assays?
AF4-AF9 inh: inactive; ARNT TACC3 PPI: inactive; UUG fidelity: inactive; E-sel inducer: inactive; S100A4 MyoIIA: 130.1; ERAP1 inh: inactive

What do the screens show for `CCCC(=O)Nc1ccc2c(c1)OC[C@@H](C)N(C(=O)c1cnccn1)C[C@@H](C)[C@H](OC)CN(C)C2=O`?
AF4-AF9 inh: inactive; ARNT TACC3 PPI: inactive; UUG fidelity: inactive; E-sel inducer: inactive; S100A4 MyoIIA: 141.5; ERAP1 inh: inactive

How did COc1ccc(C2C(C(=O)c3ccccc3)N3c4ccccc4C=CC3C2[N+](=O)[O-])cc1 (stereo not drawn) do in these assays?
AF4-AF9 inh: inactive; ARNT TACC3 PPI: inactive; E-sel inducer: 119.6; S100A4 MyoIIA: inactive; ERAP1 inh: inactive

How did COc1ccc(NC(=O)Nc2ccc3c(c2)C(=O)N([C@@H](C)CO)C[C@H](C)[C@@H](CN(C)C)O3)cc1 do in these assays?
AF4-AF9 inh: inactive; ARNT TACC3 PPI: inactive; UUG fidelity: inactive; E-sel inducer: 41.0; S100A4 MyoIIA: inactive; ERAP1 inh: inactive

Results for COc1ccc(CN(C)C[C@H]2Oc3ccc(NC(=O)Nc4c(C)noc4C)cc3C(=O)N([C@@H](C)CO)C[C@H]2C)cc1 ?
AF4-AF9 inh: inactive; ARNT TACC3 PPI: inactive; UUG fidelity: inactive; E-sel inducer: 239.1; S100A4 MyoIIA: inactive; ERAP1 inh: inactive

How did COc1ccc(NC(=O)Nc2ccc3c(c2)C(=O)N([C@H](C)CO)C[C@H](C)[C@@H](CN(C)Cc2ccncc2)O3)cc1 do in these assays?
AF4-AF9 inh: inactive; ARNT TACC3 PPI: inactive; UUG fidelity: inactive; E-sel inducer: 169.5; S100A4 MyoIIA: inactive; ERAP1 inh: inactive

Results for COc1ccc(CN(C)C[C@@H]2Oc3ccc(NC(=O)c4ccncc4)cc3C(=O)N([C@@H](C)CO)C[C@H]2C)cc1 ?
AF4-AF9 inh: inactive; ARNT TACC3 PPI: inactive; UUG fidelity: inactive; E-sel inducer: 55.8; S100A4 MyoIIA: inactive; ERAP1 inh: inactive

Results for COc1ccc(NC(=O)Nc2ccc3c(c2)C(=O)N([C@H](C)CO)C[C@@H](C)[C@@H](CN(C)Cc2ccncc2)O3)cc1 ?
AF4-AF9 inh: inactive; UUG fidelity: inactive; E-sel inducer: inactive; S100A4 MyoIIA: inactive; ERAP1 inh: inactive

What do the screens show for `COc1ccc(NC(=O)Nc2ccc3c(c2)C(=O)N([C@@H](C)CO)C[C@H](C)[C@H](CN(C)C)O3)cc1`?
AF4-AF9 inh: inactive; ARNT TACC3 PPI: inactive; UUG fidelity: inactive; E-sel inducer: inactive; S100A4 MyoIIA: inactive; ERAP1 inh: inactive

Results for O=C(C[C@@H]1CC[C@@H]2[C@H](COC[C@H](O)CN2Cc2ccccc2F)O1)NC1CCC1 ?
ARNT TACC3 PPI: inactive; E-sel inducer: inactive

How did CNC[C@H]1OCCCC[C@H](C)Oc2ccc(NC(=O)Nc3c(C)noc3C)cc2C(=O)N([C@@H](C)CO)C[C@H]1C do in these assays?
E-sel inducer: inactive

What do the screens show for `C[C@@H]1CN([C@H](C)CO)S(=O)(=O)c2ccc(-c3ccc(F)cc3)cc2O[C@H]1CN(C)C(=O)C1CC1`?
UUG fidelity: inactive; E-sel inducer: inactive

How did O=C(Cc1ccccc1)N1CC(=O)N2[C@H](CO)[C@@H](c3ccc(C4=CCCC4)cc3)[C@@H]2C1 do in these assays?
AF4-AF9 inh: inactive; E-sel inducer: inactive; S100A4 MyoIIA: inactive; ERAP1 inh: inactive

Results for C[n+]1cccc(C(=O)NCC2CCCO2)c1 (stereo not drawn) ?
AF4-AF9 inh: inactive; ARNT TACC3 PPI: inactive; UUG fidelity: inactive; S100A4 MyoIIA: inactive; ERAP1 inh: 98.9

How did Cc1ccc(S(=O)(=O)NCc2ccccc2)cc1C(=O)NCC1CCCO1 (stereo not drawn) do in these assays?
AF4-AF9 inh: inactive; ARNT TACC3 PPI: inactive; E-sel inducer: inactive; S100A4 MyoIIA: active; ERAP1 inh: inactive

How did Cc1cc(S(=O)(=O)NCc2ccccc2)ccc1OCC(=O)NCC1CCCO1 (stereo not drawn) do in these assays?
AF4-AF9 inh: inactive; UUG fidelity: inactive; E-sel inducer: inactive; S100A4 MyoIIA: inactive; ERAP1 inh: inactive

What do the screens show for `O=C(NCC1CCCO1)c1ccccc1` (stereo not drawn)?
ARNT TACC3 PPI: inactive; UUG fidelity: inactive

Results for COC(=O)C[C@H]1CC[C@H]2[C@H](COc3ccc(NC(=O)c4cccc(Cl)c4)cc3C(=O)N2C)O1 ?
AF4-AF9 inh: inactive; ARNT TACC3 PPI: inactive; E-sel inducer: inactive; S100A4 MyoIIA: inactive; ERAP1 inh: inactive
